Assay results from patent US10112926B2 (priority 2014, dated 2018).

Protein sequences, listed by entry. Tags and fused reporters are not part of them. Lines headed by an entry give the natural chain unless they say otherwise; changes in a name come on top.
UniProt P42336, whole entry, looked up: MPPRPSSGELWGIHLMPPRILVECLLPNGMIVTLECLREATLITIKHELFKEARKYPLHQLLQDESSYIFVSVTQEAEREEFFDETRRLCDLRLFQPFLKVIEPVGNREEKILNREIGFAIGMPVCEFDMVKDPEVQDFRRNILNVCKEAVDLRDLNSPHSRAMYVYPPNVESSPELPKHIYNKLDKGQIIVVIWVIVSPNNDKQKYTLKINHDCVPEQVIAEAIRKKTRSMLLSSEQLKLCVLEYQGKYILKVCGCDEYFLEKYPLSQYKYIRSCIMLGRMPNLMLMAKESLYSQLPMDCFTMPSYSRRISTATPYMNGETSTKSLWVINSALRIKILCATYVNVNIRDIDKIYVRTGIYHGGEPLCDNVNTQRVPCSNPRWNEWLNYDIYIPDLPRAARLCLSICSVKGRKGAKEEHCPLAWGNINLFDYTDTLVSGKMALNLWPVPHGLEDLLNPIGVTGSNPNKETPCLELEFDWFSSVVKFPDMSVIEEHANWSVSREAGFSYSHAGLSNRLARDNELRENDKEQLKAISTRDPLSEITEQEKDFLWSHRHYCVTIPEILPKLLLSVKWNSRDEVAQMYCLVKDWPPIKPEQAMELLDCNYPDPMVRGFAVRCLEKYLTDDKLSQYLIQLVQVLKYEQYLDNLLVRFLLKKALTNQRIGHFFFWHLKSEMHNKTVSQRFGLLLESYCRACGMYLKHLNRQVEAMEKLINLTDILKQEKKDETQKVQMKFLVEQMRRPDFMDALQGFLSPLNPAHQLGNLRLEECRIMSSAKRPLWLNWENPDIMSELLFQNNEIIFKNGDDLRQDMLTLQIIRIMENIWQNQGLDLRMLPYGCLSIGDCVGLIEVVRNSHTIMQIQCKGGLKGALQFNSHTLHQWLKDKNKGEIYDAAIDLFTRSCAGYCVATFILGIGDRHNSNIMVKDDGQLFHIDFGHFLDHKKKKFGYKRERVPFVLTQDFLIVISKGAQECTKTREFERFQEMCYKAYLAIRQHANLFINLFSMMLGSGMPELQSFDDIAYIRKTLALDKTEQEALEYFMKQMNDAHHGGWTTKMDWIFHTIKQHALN
UniProt P42338: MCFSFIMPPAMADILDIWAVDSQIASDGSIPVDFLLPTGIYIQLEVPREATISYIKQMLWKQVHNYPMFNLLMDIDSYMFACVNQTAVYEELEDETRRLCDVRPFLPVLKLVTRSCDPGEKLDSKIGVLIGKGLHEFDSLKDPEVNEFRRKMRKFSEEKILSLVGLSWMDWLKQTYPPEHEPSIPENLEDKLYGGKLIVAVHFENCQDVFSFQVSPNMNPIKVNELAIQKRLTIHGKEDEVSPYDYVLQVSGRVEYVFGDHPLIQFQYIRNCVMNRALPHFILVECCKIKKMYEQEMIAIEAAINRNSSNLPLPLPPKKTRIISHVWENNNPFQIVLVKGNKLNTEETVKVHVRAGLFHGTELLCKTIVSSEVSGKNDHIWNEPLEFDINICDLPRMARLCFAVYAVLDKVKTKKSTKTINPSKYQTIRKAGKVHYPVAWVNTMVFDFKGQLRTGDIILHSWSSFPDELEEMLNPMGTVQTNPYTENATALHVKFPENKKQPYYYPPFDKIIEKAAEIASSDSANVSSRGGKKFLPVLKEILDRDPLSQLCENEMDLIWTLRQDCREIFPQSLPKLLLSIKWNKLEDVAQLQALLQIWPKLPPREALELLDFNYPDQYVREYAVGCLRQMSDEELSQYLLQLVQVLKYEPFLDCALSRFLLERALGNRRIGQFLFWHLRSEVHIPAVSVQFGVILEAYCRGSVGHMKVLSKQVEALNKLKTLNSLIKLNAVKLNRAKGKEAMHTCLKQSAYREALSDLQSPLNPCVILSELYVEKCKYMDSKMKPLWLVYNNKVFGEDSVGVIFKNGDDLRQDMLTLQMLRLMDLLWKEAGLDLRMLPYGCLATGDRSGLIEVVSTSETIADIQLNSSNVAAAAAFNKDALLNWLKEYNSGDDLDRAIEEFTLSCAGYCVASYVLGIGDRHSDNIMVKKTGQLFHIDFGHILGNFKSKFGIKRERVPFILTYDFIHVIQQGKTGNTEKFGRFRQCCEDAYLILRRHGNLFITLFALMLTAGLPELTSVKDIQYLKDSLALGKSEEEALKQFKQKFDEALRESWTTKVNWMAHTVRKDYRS
UniProt Q9UBF8: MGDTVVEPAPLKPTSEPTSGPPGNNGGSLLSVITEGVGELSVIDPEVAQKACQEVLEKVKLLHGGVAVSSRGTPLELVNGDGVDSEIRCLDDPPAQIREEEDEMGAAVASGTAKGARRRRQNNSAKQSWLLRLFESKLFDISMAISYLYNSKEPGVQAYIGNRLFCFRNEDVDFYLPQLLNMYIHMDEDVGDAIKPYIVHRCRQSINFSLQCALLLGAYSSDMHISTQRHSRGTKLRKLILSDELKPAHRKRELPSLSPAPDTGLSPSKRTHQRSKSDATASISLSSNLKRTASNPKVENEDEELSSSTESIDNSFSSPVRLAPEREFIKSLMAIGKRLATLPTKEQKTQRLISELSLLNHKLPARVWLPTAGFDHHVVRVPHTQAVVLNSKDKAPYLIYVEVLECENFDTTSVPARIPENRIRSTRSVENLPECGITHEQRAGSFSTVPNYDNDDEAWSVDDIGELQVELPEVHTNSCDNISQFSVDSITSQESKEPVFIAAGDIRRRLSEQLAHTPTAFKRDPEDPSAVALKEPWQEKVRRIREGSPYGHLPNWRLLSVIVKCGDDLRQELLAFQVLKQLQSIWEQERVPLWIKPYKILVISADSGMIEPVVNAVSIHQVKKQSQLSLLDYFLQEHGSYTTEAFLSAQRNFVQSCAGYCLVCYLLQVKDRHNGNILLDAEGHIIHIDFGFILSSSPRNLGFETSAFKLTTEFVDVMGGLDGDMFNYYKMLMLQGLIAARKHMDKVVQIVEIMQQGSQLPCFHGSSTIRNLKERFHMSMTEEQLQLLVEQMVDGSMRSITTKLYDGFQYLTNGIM
UniProt Q8NEB9, whole entry: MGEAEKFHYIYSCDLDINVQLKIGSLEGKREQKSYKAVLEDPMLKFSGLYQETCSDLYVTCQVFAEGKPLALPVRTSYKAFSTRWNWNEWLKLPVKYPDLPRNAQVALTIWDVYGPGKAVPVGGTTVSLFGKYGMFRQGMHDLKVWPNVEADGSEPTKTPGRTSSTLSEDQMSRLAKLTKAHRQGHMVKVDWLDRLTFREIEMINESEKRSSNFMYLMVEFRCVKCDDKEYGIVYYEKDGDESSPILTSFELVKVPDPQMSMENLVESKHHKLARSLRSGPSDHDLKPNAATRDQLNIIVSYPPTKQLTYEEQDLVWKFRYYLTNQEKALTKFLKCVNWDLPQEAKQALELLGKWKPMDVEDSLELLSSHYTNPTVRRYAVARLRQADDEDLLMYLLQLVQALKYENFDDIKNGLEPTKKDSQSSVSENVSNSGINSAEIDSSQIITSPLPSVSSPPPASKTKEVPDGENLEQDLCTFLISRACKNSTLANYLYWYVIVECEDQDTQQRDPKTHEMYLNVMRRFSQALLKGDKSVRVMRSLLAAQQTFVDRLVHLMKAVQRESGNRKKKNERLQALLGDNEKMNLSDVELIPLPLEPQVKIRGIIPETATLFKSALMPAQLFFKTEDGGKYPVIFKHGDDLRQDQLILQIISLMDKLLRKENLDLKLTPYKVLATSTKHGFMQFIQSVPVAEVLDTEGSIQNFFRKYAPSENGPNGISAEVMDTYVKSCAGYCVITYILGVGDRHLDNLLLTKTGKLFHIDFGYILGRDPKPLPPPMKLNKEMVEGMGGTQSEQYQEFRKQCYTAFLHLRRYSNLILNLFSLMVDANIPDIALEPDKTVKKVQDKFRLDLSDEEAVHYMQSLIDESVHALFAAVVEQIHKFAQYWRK
UniProt P48736: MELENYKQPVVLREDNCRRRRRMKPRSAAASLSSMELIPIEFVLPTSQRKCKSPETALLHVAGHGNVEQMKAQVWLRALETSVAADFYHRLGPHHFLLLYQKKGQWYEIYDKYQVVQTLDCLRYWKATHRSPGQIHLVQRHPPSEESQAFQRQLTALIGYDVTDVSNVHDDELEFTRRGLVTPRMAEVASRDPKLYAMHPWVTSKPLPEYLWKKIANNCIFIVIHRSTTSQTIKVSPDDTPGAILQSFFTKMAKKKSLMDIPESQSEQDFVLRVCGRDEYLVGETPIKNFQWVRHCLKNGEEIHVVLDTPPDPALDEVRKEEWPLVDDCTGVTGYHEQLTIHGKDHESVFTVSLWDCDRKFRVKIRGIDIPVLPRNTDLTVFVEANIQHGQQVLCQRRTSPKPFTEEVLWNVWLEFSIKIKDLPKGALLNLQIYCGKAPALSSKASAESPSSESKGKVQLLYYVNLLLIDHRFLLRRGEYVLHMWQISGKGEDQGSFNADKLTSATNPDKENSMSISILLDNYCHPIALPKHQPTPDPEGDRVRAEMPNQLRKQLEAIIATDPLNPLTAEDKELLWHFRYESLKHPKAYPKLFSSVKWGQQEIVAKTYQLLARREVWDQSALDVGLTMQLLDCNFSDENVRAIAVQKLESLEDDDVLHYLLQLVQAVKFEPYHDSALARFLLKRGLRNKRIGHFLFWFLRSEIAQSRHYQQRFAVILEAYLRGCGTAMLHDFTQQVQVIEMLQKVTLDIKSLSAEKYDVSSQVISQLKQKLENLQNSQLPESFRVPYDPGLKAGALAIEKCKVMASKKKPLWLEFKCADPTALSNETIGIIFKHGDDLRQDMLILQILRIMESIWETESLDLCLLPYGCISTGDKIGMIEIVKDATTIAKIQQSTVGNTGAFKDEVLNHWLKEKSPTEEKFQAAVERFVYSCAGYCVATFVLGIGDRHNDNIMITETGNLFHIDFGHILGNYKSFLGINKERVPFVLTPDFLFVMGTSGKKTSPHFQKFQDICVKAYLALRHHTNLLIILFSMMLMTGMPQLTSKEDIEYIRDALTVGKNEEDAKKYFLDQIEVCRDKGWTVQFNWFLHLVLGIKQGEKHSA
UniProt O00329: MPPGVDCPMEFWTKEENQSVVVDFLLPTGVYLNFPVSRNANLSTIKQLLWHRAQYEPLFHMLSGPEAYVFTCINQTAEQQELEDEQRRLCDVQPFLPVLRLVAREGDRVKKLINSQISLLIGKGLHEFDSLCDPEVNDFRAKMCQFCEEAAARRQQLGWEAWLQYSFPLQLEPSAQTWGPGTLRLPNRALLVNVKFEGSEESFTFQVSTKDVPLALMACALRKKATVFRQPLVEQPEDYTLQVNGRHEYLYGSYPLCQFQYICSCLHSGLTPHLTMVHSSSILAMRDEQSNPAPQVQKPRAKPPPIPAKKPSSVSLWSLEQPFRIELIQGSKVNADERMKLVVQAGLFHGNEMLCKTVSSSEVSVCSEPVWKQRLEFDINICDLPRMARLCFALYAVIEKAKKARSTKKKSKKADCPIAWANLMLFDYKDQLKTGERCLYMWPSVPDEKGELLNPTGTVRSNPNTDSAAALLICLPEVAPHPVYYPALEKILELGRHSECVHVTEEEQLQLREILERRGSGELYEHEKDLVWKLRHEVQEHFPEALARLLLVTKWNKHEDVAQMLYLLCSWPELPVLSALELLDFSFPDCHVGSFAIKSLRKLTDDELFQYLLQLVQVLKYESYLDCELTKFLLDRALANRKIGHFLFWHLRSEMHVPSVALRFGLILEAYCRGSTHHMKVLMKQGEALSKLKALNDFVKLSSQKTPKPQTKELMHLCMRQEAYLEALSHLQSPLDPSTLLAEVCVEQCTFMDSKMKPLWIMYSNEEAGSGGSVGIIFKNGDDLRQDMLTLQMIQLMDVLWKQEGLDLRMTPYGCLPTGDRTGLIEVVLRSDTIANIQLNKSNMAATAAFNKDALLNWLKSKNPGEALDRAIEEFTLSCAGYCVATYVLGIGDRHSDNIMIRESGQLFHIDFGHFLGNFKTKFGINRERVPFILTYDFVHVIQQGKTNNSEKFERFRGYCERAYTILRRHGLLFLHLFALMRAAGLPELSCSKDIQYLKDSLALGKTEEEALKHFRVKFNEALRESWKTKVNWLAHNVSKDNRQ

Tests used:
PI 3-kinase alpha [1] = molecular target: T1, PI 3-kinase alpha (Homo sapiens (Human), UniProt P42336)
PI 3-kinase beta [2] = molecular target: T2, PI 3-kinase beta (Homo sapiens (Human), UniProt P42338)
PI 4-kinase beta [3] = molecular target: T3, PI 4-kinase beta (Homo sapiens (Human), UniProt Q9UBF8); conditions: read-out: Assay D PI4Kβ IC50
[4] = molecular target: T4, PI 3-kinase alpha (Rat-1 pBABEpuro Myr-HA-hp110 alpha cells) (Homo sapiens (Human), UniProt P42336); assay: cell-based
[5] = molecular target: T5, PI 3-kinase beta (Rat-1 pBABEpuro Myr-HA-hp110 beta cells) (Homo sapiens (Human), UniProt P42338); assay: cell-based
Vps34 [6] = molecular target: T6, Vps34 (Homo sapiens (Human), UniProt Q8NEB9); assay: biochemical
mTOR = mTOR (Homo sapiens (Human), UniProt P42345); assay: biochemical; conditions: Assay G mTOR IC50 (μM)
PI 3-kinase alpha [7] = molecular target: T1, PI 3-kinase alpha; assay: biochemical; conditions: Assay A PI3Kα IC50 (μM)
PI 3-kinase beta [8] = molecular target: T2, PI 3-kinase beta; assay: biochemical; conditions: Assay B PI3Kβ IC50 (μM)
[9] = molecular target: T5, PI 3-kinase beta (Rat-1 pBABEpuro Myr-HA-hp110 beta cells); assay: cell-based; remark: listed apart in the source
[10] = molecular target: T4, PI 3-kinase alpha (Rat-1 pBABEpuro Myr-HA-hp110 alpha cells); assay: cell-based; remark: listed apart in the source
PI 4-kinase beta [11] = molecular target: T3, PI 4-kinase beta; assay: biochemical
[12] = rat, microsomes, pH 7.4
Vps34 [13] = molecular target: T6, Vps34; conditions: read-out: Assay C VPS34 IC50
[14] = molecular target: T7, PI 3-kinase gamma (U937 cells, MIP1α-stimulated AKT phosphorylation) (Homo sapiens (Human), UniProt P48736); conditions: read-out: Assay K1 PI3Kγ
PI 3-kinase delta = PI 3-kinase delta (Homo sapiens (Human), UniProt O00329)
PI 3-kinase gamma = PI 3-kinase gamma (Homo sapiens (Human), UniProt P48736); conditions: read-out: Assay E PI3Kγ
[15] = molecular target: T7, PI 3-kinase gamma (U937 cells, MIP1α-stimulated AKT phosphorylation); conditions: read-out: Assay K2 PI3Kγ

Cc1noc(-c2cc(-c3cc(S(=O)(=O)NC4CC(O)C4)ccc3C)cnc2N)n1 (mixture of isomers) [Example 5.5, Diastereomers of 3-(6-Amino-5-(3-methyl-1,2,4-oxadiazol-5-yl)pyridin-3-yl)-N-(3-hydroxycyclobutyl)-4-methylbenzene sulfonamide hydrochloride]
IC50 (PI 3-kinase alpha [1]; read-out: Assay A PI3Kα IC50): 320 nM | IC50 (PI 3-kinase beta [2]; read-out: Assay B PI3Kβ IC50): 1000 nM | IC50 (PI 4-kinase beta [3]): 4000 nM | IC50 ([4]; Assay H PI3Kα IC50): 4430 nM | IC50 ([5]; Assay I PI3Kβ IC50): > 10000 nM

Cc1noc(-c2cc(-c3cc(S(=O)(=O)NC4CC5(CC(O)C5)C4)ccc3C)cnc2N)n1 (racemic) [Example 8, 3-[6-Amino-5-(3-methyl-[1,2,4]oxadiazol-5-yl)-pyridin-3-yl]-N-(6-hydroxy-spiro[3.3]hept-2-yl)-4-methyl-benzenesulfonamide (racemate)]
IC50 (Vps34 [6]): > 10000 nM | IC50 (mTOR): > 10 µM | IC50 ([4]; Assay H PI3Kα IC50): 650 nM | IC50 (PI 3-kinase alpha [7]): 0.06 µM | IC50 (PI 3-kinase beta [8]): 0.43 µM | IC50 ([5]; Assay I PI3Kβ IC50): 4680 nM

Cc1cc(-c2cc(-c3cc(S(=O)(=O)N[C@H]4CC[C@H](O)C4)ccc3C)cnc2N)on1 (racemic) [Example 96, trans-3-(6-amino-5-(3-methylisoxazol-5-yl)pyridin-3-yl)-N-(3-hydroxycyclopentyl)-4-methylbenzenesulfonamide]
IC50 (Vps34 [6]): > 10000 nM | IC50 [9]: > 10000 nM | IC50 (PI 3-kinase alpha [7]): 1.1 µM | IC50 [10]: 5840 nM

Cc1cc(-c2cc(-c3cc(S(=O)(=O)N[C@H]4COC[C@@H]4O)ccc3C)cnc2N)on1 (racemic) [Example 101.1, 3-(6-amino-5-(3-methylisoxazol-5-yl)pyridin-3-yl)-N-(trans-4-hydroxytetrahydrofuran-3-yl)-4-methylbenzenesulfonamide:trifluoroacetic acid 1:1]
IC50 (Vps34 [6]): > 10000 nM | IC50 (mTOR): > 10 µM | IC50 [9]: > 10000 nM | IC50 (PI 3-kinase alpha [7]): 0.52 µM | IC50 (PI 3-kinase beta [8]): 4.7 µM | IC50 [10]: > 10000 nM

Cc1cc(-c2cc(-c3cc(S(=O)(=O)N[C@H]4CCC[C@@H]4O)ccc3C)cnc2N)on1 (racemic) [Example 101.2, 3-(6-amino-5-(3-methylisoxazol-5-yl)pyridin-3-yl)-N-((trans)-2-hydroxycyclopentyl)-4-methylbenzenesulfonamide]
IC50 (Vps34 [6]): > 10000 nM | IC50 (mTOR): > 10 µM | IC50 [9]: > 10000 nM | IC50 (PI 3-kinase alpha [7]): 0.44 µM | IC50 [10]: > 10000 nM

Cc1ncc(-c2cc(-c3cc(S(=O)(=O)NCC(C)O)ccc3C)cnc2N)o1 (racemic) [Example 104.15, rac-3-(6-amino-5-(2-methyloxazol-5-yl)pyridin-3-yl)-N-(2-hydroxypropyl)-4-methylbenzenesulfon-amide]
IC50 (Vps34 [6]): 1600 nM | IC50 [9]: 5200 nM | IC50 (PI 4-kinase beta [11]; Assay D PI4Kβ IC50 (μM)): 1.9 µM | IC50 (PI 3-kinase alpha [7]): 0.19 µM | IC50 (PI 3-kinase beta [8]): > 10 µM | IC50 [10]: 3580 nM

Cc1noc(-c2cc(-c3cc(S(=O)(=O)NCC(C)O)ccc3C)cnc2N)n1 (racemic) [Example 108, Rac-3-(6-amino-5-(3-methyl-1,2,4-oxadiazol-5-yl)pyridin-3-yl)-N-(2-hydroxypropyl)-4-methylbenzenesulfonamide]
IC50 (Vps34 [6]): > 10000 nM | IC50 (mTOR): > 10 µM | IC50 (PI 4-kinase beta [11]; Assay D PI4Kβ IC50 (μM)): 5.9 µM | IC50 ([4]; Assay H PI3Kα IC50): > 10000 nM | IC50 (PI 3-kinase alpha [7]): 0.64 µM | IC50 (PI 3-kinase beta [8]): 7.3 µM | IC50 ([5]; Assay I PI3Kβ IC50): 3310 nM

Cc1noc(-c2cc(-c3cc(S(=O)(=O)N[C@H]4CC5(C[C@@H](O)C5)C4)ccc3C)cnc2N)n1 (single isomer, unassigned) [Example 8.1, (R) or (S)-3-[6-Amino-5-(3-methyl-[1,2,4]oxadiazol-5-yl)-pyridin-3-yl]-N-(6-hydroxy-spiro[3.3]hept-2-yl)-4-methyl-benzenesulfonamide hydrochloride]
IC50 (Vps34 [6]): > 10000 nM | IC50 (mTOR): 0.98 µM | Assay M RLM CI(int) [12]: 153 µL/min/mg | IC50 ([4]; Assay H PI3Kα IC50): 310 nM | IC50 (PI 3-kinase alpha [7]): 0.02 µM | IC50 (PI 3-kinase beta [8]): 0.36 µM | IC50 ([5]; Assay I PI3Kβ IC50): 980 nM

Cc1noc(-c2cc(-c3cc(S(=O)(=O)N[C@H]4CC5(C[C@@H](O)C5)C4)ccc3C)cnc2N)n1 (single isomer, unassigned) [Example 8.2, (R) or (S)-3-[6-Amino-5-(3-methyl-[1,2,4]oxadiazol-5-yl)-pyridin-3-yl]-N-(6-hydroxy-spiro[3.3]hept-2-yl)-4-methyl-benzenesulfonamide hydrochloride]
IC50 (mTOR): 8.2 µM | Assay M RLM CI(int) [12]: 132 µL/min/mg | IC50 ([4]; Assay H PI3Kα IC50): 540 nM | IC50 (PI 3-kinase alpha [7]): 0.04 µM | IC50 (PI 3-kinase beta [8]): 2.1 µM | IC50 ([5]; Assay I PI3Kβ IC50): 1430 nM | IC50 (Vps34 [13]): > 10000 nM

Cc1cc(-c2cc(-c3cc(S(=O)(=O)NOC4CCOC4)ccc3C)cnc2N)on1 (single isomer, unassigned) [Example 21a, (R or S)-3-(6-Amino-5-(3-methylisoxazol-5-yl)pyridin-3-yl)-4-methyl-N-((tetrahydrofuran-3-yl)oxy)benzenesulfonamide]
IC50 (Vps34 [6]): > 10000 nM | IC50 ([4]; Assay H PI3Kα IC50): 740 nM | IC50 (PI 3-kinase beta [8]): 0.68 µM

Cc1cc(-c2cc(-c3cc(S(=O)(=O)NCC4CCCOC4)ccc3C)cnc2N)on1 (single isomer, unassigned) [Example 23a, (R or S)-3-(6-Amino-5-(3-methylisoxazol-5-yl)pyridin-3-yl)-4-methyl-N-((tetrahydro-2H-pyran-3-yl)methyl)benzenesulfonamide]
IC50 (Vps34 [6]): > 10000 nM | IC50 (PI 4-kinase beta [11]; Assay D PI4Kβ IC50 (μM)): 2.1 µM | IC50 ([4]; Assay H PI3Kα IC50): 2590 nM | IC50 (PI 3-kinase alpha [7]): 0.26 µM | IC50 (PI 3-kinase beta [8]): 2.55 µM | IC50 ([5]; Assay I PI3Kβ IC50): > 3000 nM

Cc1ccc(S(=O)(=O)N2CCOCC2)cc1-c1cnc(N)c(C(=O)c2cccnc2)c1 [(i), reference compound]
IC50 [14]: 526 nM | IC50 (PI 3-kinase alpha [1]; read-out: Assay A PI3Kα): 250 nM | IC50 (PI 3-kinase delta; read-out: Assay F PI3Kδ): 630 nM | IC50 (PI 3-kinase beta [2]; read-out: Assay B PI3Kβ): 1240 nM | IC50 (PI 3-kinase gamma): 64 nM | IC50 (PI 4-kinase beta [11]; Assay D PI4Kβ): 3.16 µM | IC50 ([4]; Assay H PI3Kα): 970 nM | IC50 [15]: 838 nM | IC50 ([5]; Assay I PI3Kβ): 3770 nM

CC(C)(C)c1ccc(C(=O)c2cc(-c3cccc(S(=O)(=O)NC4CC4)c3)cnc2N)cc1 [(iii), reference compound]
IC50 (Vps34 [6]): 700 nM | IC50 (PI 3-kinase alpha [1]; read-out: Assay A PI3Kα): 20 nM | IC50 (PI 3-kinase gamma): 1200 nM | IC50 (PI 4-kinase beta [11]; Assay D PI4Kβ): 0.3 µM

Cc1ccc(S(=O)(=O)N2CCOCC2)cc1-c1cnc(N)c(C(=O)c2cccnc2)n1 [(ix), reference compound]
IC50 (Vps34 [6]): 6310 nM | IC50 [14]: 20 nM | IC50 (PI 3-kinase alpha [1]; read-out: Assay A PI3Kα): 780 nM | IC50 (PI 3-kinase delta; read-out: Assay F PI3Kδ): 80 nM | IC50 (PI 3-kinase beta [2]; read-out: Assay B PI3Kβ): 630 nM | IC50 (PI 3-kinase gamma): 7 nM | IC50 (PI 4-kinase beta [11]; Assay D PI4Kβ): 4.01 µM | IC50 ([4]; Assay H PI3Kα): 850 nM | IC50 ([5]; Assay I PI3Kβ): 2290 nM

Nc1ncc(-c2ccc(Cl)c(S(=O)(=O)N[C@H]3CC[C@H](O)CC3)c2)nc1C(=O)c1cccnc1 [(v), reference compound]
IC50 (Vps34 [6]): 910 nM | IC50 (PI 3-kinase alpha [1]; read-out: Assay A PI3Kα): 70 nM | IC50 (PI 3-kinase delta; read-out: Assay F PI3Kδ): 1970 nM | IC50 (PI 3-kinase beta [2]; read-out: Assay B PI3Kβ): 140 nM | IC50 (PI 3-kinase gamma): 247 nM | IC50 (PI 4-kinase beta [11]; Assay D PI4Kβ): 0.16 µM | IC50 ([4]; Assay H PI3Kα): 180 nM | IC50 ([5]; Assay I PI3Kβ): 230 nM

COCCNS(=O)(=O)c1cc(-c2cnc(N)c(C(=O)c3cccnc3)n2)ccc1Cl [(vi), reference compound]
IC50 (Vps34 [6]): 2380 nM | IC50 [14]: 182 nM | IC50 (PI 3-kinase alpha [1]; read-out: Assay A PI3Kα): 90 nM | IC50 (PI 3-kinase delta; read-out: Assay F PI3Kδ): 450 nM | IC50 (PI 3-kinase beta [2]; read-out: Assay B PI3Kβ): 190 nM | IC50 (PI 3-kinase gamma): 34 nM | IC50 (PI 4-kinase beta [11]; Assay D PI4Kβ): 0.61 µM | IC50 ([4]; Assay H PI3Kα): 170 nM | IC50 ([5]; Assay I PI3Kβ): 260 nM

CCN1CCC[C@H]1CNS(=O)(=O)c1ccc(C)c(-c2cnc(N)c(-c3cc(C)no3)c2)c1 [Example 37.33, (S)-3-(6-Amino-5-(3-methylisoxazol-5-yl)pyridin-3-yl)-N-((1-ethylpyrrolidin-2-yl)methyl)-4-methylbenzenesulfonamide]
IC50 (PI 3-kinase alpha [1]; read-out: Assay A PI3Kα IC50): 2500 nM | IC50 (PI 3-kinase beta [2]; read-out: Assay B PI3Kβ IC50): 6500 nM | IC50 (PI 4-kinase beta [3]): > 10000 nM | IC50 ([5]; Assay I PI3Kβ IC50): > 10000 nM

Cc1cc(-c2cc(-c3cc(S(=O)(=O)NCC4(O)CCC4)ccc3C)cnc2N)on1 [Example 37.35, 3-(6-Amino-5-(3-methylisoxazol-5-yl)pyridin-3-yl)-N-((1-hydroxycyclobutyl)methyl)-4-methylbenzenesulfonamide]
IC50 (PI 3-kinase alpha [1]; read-out: Assay A PI3Kα IC50): 590 nM | IC50 (PI 3-kinase delta; read-out: Assay F PI3Kδ IC50): 1200 nM | IC50 (PI 3-kinase beta [2]; read-out: Assay B PI3Kβ IC50): 3300 nM | IC50 ([4]; Assay H PI3Kα IC50): 3570 nM | IC50 ([5]; Assay I PI3Kβ IC50): > 10000 nM

Cc1cc(-c2cc(-c3cc(S(=O)(=O)NCCO)ccc3C)cnc2N)on1 [Example 73, 3-(6-Amino-5-(3-methylisoxazol-5-yl)pyridin-3-yl)-N-(2-hydroxyethyl)-4-methylbenzenesulfonamide]
IC50 (PI 3-kinase alpha [1]; read-out: Assay A PI3Kα IC50): 240 nM | IC50 (PI 3-kinase delta; read-out: Assay F PI3Kδ IC50): 520 nM | IC50 (PI 3-kinase beta [2]; read-out: Assay B PI3Kβ IC50): 1000 nM | IC50 ([4]; Assay H PI3Kα IC50): 2530 nM | IC50 ([5]; Assay I PI3Kβ IC50): > 10000 nM

Where a name gives a salt, the structure may show the parent alone. Read-outs that look alike come from different tables or passages of the source.
